# AlphaSeq binding of Ab-91 heavy chain variants to a spike HR2 peptide

Antigen: PDVDLGDISGINAS, a 14-residue peptide of the SARS-CoV-2 spike HR2 region.

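AAYL51 was designed without a model: most single CDR substitutions and a random sample of double and triple ones. The assay is AlphaSeq: two haploid yeast populations carry antibody and antigen on their surface. Mating (16 h, 30 °C) was followed by selection of diploids and sequencing of their barcodes. Scores were corrected for input abundance and mapped to Kd with protein pairs of known affinity run in the same pool. The assay was run in three technical replicates.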

Parent scFv Ab-91: VL joined to VH by a 15-residue (Gly4Ser)3 linker. Changes lie in the heavy chain CDRs alone.
VL: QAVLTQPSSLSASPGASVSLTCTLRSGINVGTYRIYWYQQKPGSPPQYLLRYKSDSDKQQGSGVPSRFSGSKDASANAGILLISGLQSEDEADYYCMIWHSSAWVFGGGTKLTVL
VH: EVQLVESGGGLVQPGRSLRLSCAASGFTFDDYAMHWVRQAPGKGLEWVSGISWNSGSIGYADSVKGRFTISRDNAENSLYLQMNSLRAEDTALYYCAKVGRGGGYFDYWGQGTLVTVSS

Substitutions are numbered in sequence along the VH above, starting at 1 (not Kabat). The read-out is the apparent dissociation constant on a log10 scale (nM): the lower, the stronger. "n.d." means that the variant was in the library but no mating with the target was seen in that replicate; the authors take this as a sign of poor binding, and no number exists. Parent in this assay: reference entry 1.86, copy in this library 0.88. Empty control strains, which show no peptide, gave a signal in 21% of pairings with library AAYL51; the median was 4.54 and 95% of these signals were weaker than 3.26. No background was subtracted. The control count says in how many pairings with the empty strains this scFv gave a signal, with their mean in brackets.

changes,"replicates, log10 nM",control signals
D62Y+V64L+R101Q,n.d. / 5.41 / 3.02,1 of 9 (3.36)
T28H+S63M+F106D,n.d. / n.d. / n.d.,4 of 9 (4.73)
Y32Q+G59Q,n.d. / n.d. / n.d.,3 of 9 (4.53)
Y32E+H35A+V99D,4.29 / n.d. / n.d.,2 of 9 (4.04)
Y32L+H35K+A61V,n.d. / n.d. / n.d.,2 of 9 (3.69)
F29K+W53G+D107Y,n.d. / n.d. / n.d.,0 of 9
Y32S+S52T+R101M,n.d. / n.d. / n.d.,0 of 9
D30I+D31H+N54G,3.55 / 3.16 / 3.99,2 of 9 (4.37)
G56H+V64N+F106C,n.d. / n.d. / n.d.,0 of 9
T28H+G56M,2.23 / 2.46 / 2.00,4 of 9 (5.05)
Y32G+I51V+G104A,4.43 / n.d. / 5.55,5 of 9 (5.07)
Y60A+A61W+F106V,n.d. / n.d. / n.d.,3 of 9 (3.89)
H35A+A61K+K65I,4.87 / n.d. / n.d.,1 of 9 (3.70)
G102Q+G103E+Y108P,n.d. / n.d. / n.d.,1 of 9 (3.91)
Y32K+G50F+S55Y,5.66 / 4.67 / n.d.,3 of 9 (4.57)
F29R+G50S+D62G,n.d. / n.d. / n.d.,0 of 9
Y105C,1.17 / 1.31 / 0.61,2 of 9 (4.75)
G50F+K65N+R101L,n.d. / n.d. / n.d.,0 of 9
N54I+Y60E+G100E,n.d. / n.d. / n.d.,0 of 9
F29G+S57P+I58W,n.d. / n.d. / n.d.,0 of 9
D30L+R101N+F106T,1.51 / 2.96 / n.d.,2 of 9 (2.58)
G26R+W53M+Y105C,n.d. / n.d. / n.d.,0 of 9
G100T+R101W,n.d. / n.d. / n.d.,2 of 9 (4.69)
T28F+I58N+G102V,n.d. / n.d. / n.d.,3 of 9 (4.35)
G26T+I58K+F106M,n.d. / n.d. / n.d.,1 of 9 (3.58)
A33N+G59H,4.05 / n.d. / n.d.,1 of 9 (3.02)
I51H+G59V+K65M,4.17 / n.d. / n.d.,1 of 9 (5.58)
Y32K+V64G,n.d. / n.d. / n.d.,1 of 9 (5.12)
G100T+G102L+G104C,4.49 / 4.54 / n.d.,3 of 9 (3.81)
A33I+I51Y+Y60H,n.d. / n.d. / 3.91,0 of 9
I51K+S52W+S57C,n.d. / n.d. / n.d.,0 of 9
T28R+H35P+D107S,n.d. / n.d. / n.d.,0 of 9
W53R+V99I+G100I,n.d. / n.d. / n.d.,0 of 9
D31Y+S52I+Y108V,5.12 / n.d. / 4.84,2 of 9 (3.93)
V64D+R101S+F106I,n.d. / n.d. / n.d.,0 of 9
G56H+D62P+Y105V,3.38 / 2.79 / 2.44,5 of 9 (3.97)
M34A+H35L,3.98 / n.d. / n.d.,1 of 9 (4.00)

The last 4 entries again:

| changes | replicates, log10 nM | control signals |
|---|---|---|
| D31Y+S52I+Y108V | 5.12 / n.d. / 4.84 | 2 of 9 (3.93) |
| V64D+R101S+F106I | n.d. / n.d. / n.d. | 0 of 9 |
| G56H+D62P+Y105V | 3.38 / 2.79 / 2.44 | 5 of 9 (3.97) |
| M34A+H35L | 3.98 / n.d. / n.d. | 1 of 9 (4.00) |

The measurements come from Engelhart et al. 2022 (doi:10.1038/s41597-022-01779-4) through the FLAb antibody collection.